Sequences of proteins named here, by UniProt entry; tags and fusion partners are left off. Residues count along the entry.
UniProt P78352, 61-249 limits assumed: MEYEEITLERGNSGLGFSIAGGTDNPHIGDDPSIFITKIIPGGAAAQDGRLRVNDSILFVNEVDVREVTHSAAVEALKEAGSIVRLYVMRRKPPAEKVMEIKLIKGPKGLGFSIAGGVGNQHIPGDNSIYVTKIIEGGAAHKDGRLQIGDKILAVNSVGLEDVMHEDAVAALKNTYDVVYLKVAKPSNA

In patent US20260199492A1, “PSD-95 DOMAIN INHIBITOR, AND PREPARATION METHOD THEREFOR AND USE THEREOF” (SHENZHEN SALUBRIS PHARMACEUTICALS CO., LTD, priority 2023, published 2026):

What was measured:
[1] = target: T1, PDZ1-2 of PSD95 (Homo sapiens, UniProt P78352); experiment: Fluorescence polarization competition binding assay of PDZ1-2 with probe 5-FAM-NA-1; details: read-out: IC50, binding assay of PDZ1-2 with probe (5-FAM-NA-1); PDZ1-2 2500 nM; probe 5-FAM-NA-1 0.25 nM; TBS buffer pH 7.6
[2] = In vitro plasma stability experiment (compounds), without or with tPA; details: human plasma, 37° C., initial concentration 10 μM; for With tPA T1/2: with rt-PA 0.135 mg/mL
[3] = target: T1, PDZ1-2 of PSD95; experiment: fluorescence polarization saturation binding, probe 0.5 nM, PDZ1-2 titrated
[4] = target: T1, PDZ1-2 of PSD95; experiment: Fluorescence polarization competition binding assay of PDZ1-2 with dimeric 5-FAM labeled probe; details: probe 0.5 nM fixed, increasing PDZ1-2; TBS buffer pH 7.6; read-out: Kd of probe for PDZ1-2 (saturation binding)
[5] = Toxicological experiment: serum UREA and CREA after 5 days of i.v. dosing; format: in vivo; details: male SD rats, 30 mg/kg i.v. once daily for 5 days, serum 2 h after dosing on day 5
Protocol: The compounds of Examples 1-8 were accurately weighed into suitable EP tubes, and the vehicle (saline) was added to formulate a solution of a concentration of 15 mg/mL. The solution was filtered using a 0.2 μm filter for future use.
A total of 18 male SD rats of 6-7 weeks of age were used for test. After the animal quarantine and acclimatization period, the animals were randomly divided into 6 groups according to their body weights measured before grouping, vehicle control group (saline) as well as example compounds groups, 3 animals/group. Using the above prepared solution, the animal was administered intravenously via the tail vein at a dosage of 30 mg/kg and a dosing volume of 2 mL/kg. The dosing volume for each animal was calculated according to the body weight. Administration was performed once daily for 5 consecutive days. After 2 h of administration on day 5, the animals were deeply anesthetized by intraperitoneal injection of sodium pentobarbital. […] The concentrations of UREA and CREA in the serum were detected using a biochemical analyzer. The percentage change of each example compound relative to the vehicle control group was calculated using the formula: %=(Concentration of example compound−Concentration of vehicle control group)/Concentration of vehicle control group.

| Substance | IC50 [1] | With tPA T1/2 [2] | Without tPA T1/2 [2] | further results |
| --- | --- | --- | --- | --- |
| YGR(Me)2KKRR(Me)2QR(Me)2RRkLSSIESDV [Compound B1] | 7.7 µM |  |  |  |
| YGrKKRR*QrRRkLSSIESDV [Compound G7] | 3.96 µM | 12.65 h | >33.33 h |  |
| YGR*KKRrQrRRkLSSIESDV [Compound G3] | 5.2 µM | 11.6 h | >33.33 h |  |
| YGrKKRrQR*RRkLSSIESDV [Compound G11] |  | 8.17 h | >33.33 h |  |
| YGRKKRR*QRRRKLSSIESDV [Compound G5] | 5.23 µM |  |  |  |
| YGRKKRRQR*RRKLSSIESDV [Compound G9] | 6.32 µM |  |  |  |
| 5-FAM-labeled probe (5-FAM-Gly-N,N-Di(PEG2-Ile-Glu-Thr-Ala-Val-OH, molecular weight: 1867.8), or 5-FAM-Gly-N,N-Di(PEG2-Ile-Glu-Ser-Asp-Val-OH) (peptide) |  |  |  | Kd [3]: 0.0207 µM |
| 5-FAM-Gly-N,N-Di(PEG2-Ile-Glu-Thr-Ala-Val-OH |  |  |  | Kd [4]: 0.0207 ± 0.00098 µM |
| YGrKKRrQR(Me)RRkLSSIESDV [Compound H3] | 13.5 µM | >33.33 h | >33.33 h | CREA, percentage change compared to vehicle control group [5]: 46.2%; UREA, percentage change compared to vehicle control group [5]: 46.4% |
